ChEMBL document CHEMBL3217438, “Diphenylbutylpiperidine-based cell autophagy inducers: Design, synthesis and SAR studies” (Medchemcomm, 2011)
This is a selection: effects in other tests are not listed, and their absence says nothing.

Test: Induction of autophagy in human H4-LC3 cells assessed as number of spots of LC3-GFP after 4 hrs by DAPI staining

N#CC(CCCN1CCC(n2c(=O)[nH]c3ccccc32)CC1)(c1ccccc1)c1ccccc1
EC50: 8.2 µM

O=c1[nH]c2ccccc2n1C1CCN(CCCC(c2ccc(C(F)(F)F)cc2)c2ccc(C(F)(F)F)cc2)CC1
EC50: 1.2 µM
